# Entries after “also recorded” stand apart in the source; their conditions may differ.
# Assay: Enzymolysis kinetics experiment of compounds in plasma
# Conditions: human plasma, up to 120 min
row,Structure (SMILES),degradation / metabolic rate in human plasma (in words)
1,CCOC(=O)OC(CC)OC(=O)C1CCn2c(C(=O)c3ccccc3)ccc21 (centres unmarked) [N15],accelerated degradation and increased production of ketorolac; also recorded: relatively fast
2,CCC(OC(=O)OC(C)C)OC(=O)C1CCn2c(C(=O)c3ccccc3)ccc21 (centres unmarked) [N16],accelerated degradation and increased production of ketorolac

# Same assay, conditions: summary statement, metabolized in a human body
row,Structure (SMILES),metabolic rates (in words)
1,CCOC(=O)OC(CC)OC(=O)C1CCn2c(C(=O)c3ccccc3)ccc21 (centres unmarked) [N15],higher metabolic rates
2,CCC(OC(=O)OC(C)C)OC(=O)C1CCn2c(C(=O)c3ccccc3)ccc21 (centres unmarked) [N16],higher metabolic rates
3,CCC(OC(=O)OC1CCCCC1)OC(=O)C1CCn2c(C(=O)c3ccccc3)ccc21 (centres unmarked) [N20],slow metabolic rates
4,CC(C)C(OC(=O)OC1CCCCC1)OC(=O)C1CCn2c(C(=O)c3ccccc3)ccc21 (centres unmarked) [N21],slow metabolic rates

# Assay: By-product toxicity test (metabolic byproducts in the human body)
# Conditions: by the metabolic pathways of the compounds in the human body
row,Structure (SMILES),Metabolic by-products in human body
1,CCC(OC(=O)OC)OC(=O)C1CCn2c(C(=O)c3ccccc3)ccc21 (centres unmarked) [N14],Propionaldehyde and methanol
2,CCOC(=O)OC(CC)OC(=O)C1CCn2c(C(=O)c3ccccc3)ccc21 (centres unmarked) [N15],Propionaldehyde and ethanol
3,COC(=O)OC(OC(=O)C1CCn2c(C(=O)c3ccccc3)ccc21)C(C)C (centres unmarked) [N17],Isobutyraldehyde and methanol
4,CCOC(=O)OC(OC(=O)C1CCn2c(C(=O)c3ccccc3)ccc21)C(C)C (centres unmarked) [N18],Isobutyraldehyde and ethanol
5,CCC(OC(=O)OC1CCCCC1)OC(=O)C1CCn2c(C(=O)c3ccccc3)ccc21 (centres unmarked) [N20],Propionaldehyde and cyclohexanol
6,CC(C)C(OC(=O)OC1CCCCC1)OC(=O)C1CCn2c(C(=O)c3ccccc3)ccc21 (centres unmarked) [N21],Isobutyraldehyde and cyclohexanol

# Same assay, conditions: toxicity of the metabolic by-products in human body
row,Structure (SMILES),Toxicity
1,CCC(OC(=O)OC)OC(=O)C1CCn2c(C(=O)c3ccccc3)ccc21 (centres unmarked) [N14],Methanol is more toxic
2,CCOC(=O)OC(CC)OC(=O)C1CCn2c(C(=O)c3ccccc3)ccc21 (centres unmarked) [N15],low toxicity of byproducts; also recorded: relatively low
3,CCC(OC(=O)OC(C)C)OC(=O)C1CCn2c(C(=O)c3ccccc3)ccc21 (centres unmarked) [N16],low toxicity of byproducts; also recorded: relatively low
4,CCC(OC(=O)OC1CCCCC1)OC(=O)C1CCn2c(C(=O)c3ccccc3)ccc21 (centres unmarked) [N20],relatively low toxicity of byproducts
5,CC(C)C(OC(=O)OC1CCCCC1)OC(=O)C1CCn2c(C(=O)c3ccccc3)ccc21 (centres unmarked) [N21],relatively low toxicity of byproducts
